Reference: US7122643B2, “Cytostatic lanthanum compounds” (Faustus Forschungs Cie. Translational Cancer Research GmbH, priority 2001, dated 2006)

Test system: over 50 human tumour cell lines
Settings: 48-h, mean over more than 50 human tumour cell lines

Q: How did the “Mean LC50” value turn out when “[tris(1,10-phenantrolin)lanthanum(III)]trithiocyanate” was run?
A: The value was 46.9 µg/mL.

Q: And the CC50 (read-out: Mean LC50)?
A: Its CC50 is 55 µM.
